Drawing on paper PMC11299522 (Journal of medicinal chemistry, 2023), this text covers IC50 for 1 compound.

Sequences of proteins named here, by UniProt entry; tags and fusion partners are left off.
UniProt P35372, whole entry: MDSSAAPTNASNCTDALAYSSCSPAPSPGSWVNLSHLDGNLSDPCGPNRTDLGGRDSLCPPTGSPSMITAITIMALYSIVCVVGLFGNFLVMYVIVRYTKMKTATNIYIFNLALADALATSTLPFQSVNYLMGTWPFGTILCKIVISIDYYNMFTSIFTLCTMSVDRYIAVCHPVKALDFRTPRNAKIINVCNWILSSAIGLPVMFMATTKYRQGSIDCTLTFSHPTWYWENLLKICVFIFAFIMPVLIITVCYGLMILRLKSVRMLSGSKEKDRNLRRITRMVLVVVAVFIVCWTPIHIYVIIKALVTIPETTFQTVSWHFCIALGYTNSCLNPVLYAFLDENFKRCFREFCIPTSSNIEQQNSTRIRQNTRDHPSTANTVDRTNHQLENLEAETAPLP

SMILES strings stand for the structures.

This experiment deals with human μOR (hμOR) (Homo sapiens, UniProt P35372). The experiment can be described thus: Pink Flamindo cAMP assay, reversal of DAMGO-induced cAMP inhibition. The experiment is classed as cell-based. The note with it: read-out: IC50 in reversing the inhibition of cAMP by DAMGO; coapplied with DAMGO 250 nM, hμOR-HEK293 cells, AUC analysis, n = 3. Background: Changes in cAMP serve as a functional read-out for many G protein-coupled receptors.

By IC50 is commonly meant the concentration at which inhibition is half-maximal. As for `C=C(C)[C@@H]1CCC(C)=C[C@H]1c1c(O)cc(CCCCC)cc1O` [JGC1, (1′R,2′R)-5′-Methyl-4-pentyl-2′-(prop-1-en-2-yl)-1′,2′,3′,4′-tetrahydro-[1,1′-biphenyl]-2,6-diol], the IC50 turned out to be 311 nM.
